These results are taken from patent US10456414B2, “Methods for treating HCV” (priority 2011, dated 2019).

The structures appear in SMILES notation.

One may read the EC50 as the midpoint of the concentration-response curve.

The test system of test [1] is HCV genotype 1b replicon cells (Huh-luc). Description: EC50 determination in Huh-luc replicon cells (Biological Example 1). In kind it is cell-based. The conditions noted are these: Hepatitis C virus, 72 h, 3 days, average ± standard deviation. The procedure: Compounds 1 and 2 were serially diluted 1:3 in 100% DMSO (Sigma). These serial dilutions were added to the cells at a 1:200 dilution to achieve a final concentration of 0.5% DMSO in a total volume of 200 μL. […] EC50 values were calculated from the resulting equations as described previously (Delaney, W. E., et al., Antimicrobial Agents Chemotherapy, 45(6):1705-1713 (2001)).
Background: A replicon is a self-replicating genome or part of one, used to study replication in cells.

Test [2] has the same test system. The test is described as follows: EC50 determination in Huh-luc replicon cells (Biological Example 2). Particulars: Hepatitis C virus, 72 h, 3 days, average ± standard deviation. The test is classed as cell-based. How it is done: Compounds were serially diluted 1:3 in 100% DMSO (Sigma). These serial dilutions were added to the cells at a 1:200 dilution to achieve a final concentration of 0.5% DMSO in a total volume of 200 μL. […] EC50 values were calculated from the resulting equations as described previously.

The subject of test [3] is 1b Huh-luc replicon cells. The test is described as follows: Antiviral combination studies with Compound 5, MacSynergy II. The test is classed as cell-based, HCV. Particulars: in combination with Compound 5.
In test [4] the test system is HCV genotype 1b replicon cells (Huh-luc). Description: Antiviral activity assay in HCV Huh-luc replicon cells (Biological Example 5). In kind it is cell-based. Particulars: Hepatitis C virus, 72 h, 3 days, arithmetic mean ± standard deviation. The procedure: Serial dilutions were added to the cells at a 1:200 dilution to achieve a final concentration of 0.5% DMSO in a total volume of 200 μL.
EC50 values were calculated by nonlinear regression analysis of replicate data sets using XLfit 4 software (IDBS, Emeryville, Calif.).

The test system of another test is genotype 1b replicon RNA. The test is described as follows: Replicon RNA suppression, 6 day assay, QRT-PCR. Particulars: Compound 6 at 4 pM, Compound 4 at 1000 nM, Compound 1 at 10 nM, Compound 3 at 26.25 nM; 6 days; relative to DMSO control (Table XV).

Consider `Fc1ccccc1-c1nc2ccn(Cc3ccc(-c4ccc(C(F)(F)F)cc4C(F)(F)F)nn3)cc-2n1` [Compound 1, 5-((6-(2,4-bis(trifluoromethyl)phenyl)pyridazin-3-yl)methyl)-2-(2-fluorophenyl)-5H-imidazo[4,5-c]pyridine], for which the results for the EC50 in test [1], in test [2] and in test [4] were 3 ± 2 nM, 0.4 ± 0.14 nM and 0.96 ± 0.39 nM, respectively. For the same molecule, in test [3], the Interaction entry was “Moderate synergy (Moderate synergy if volumes are >50 and ≤100 nM^2)”.

As to `COc1ccc2c(O[C@@H]3C[C@H]4C(=O)N[C@]5(P(=O)(O)Cc6c(F)cccc6F)C[C@H]5CCCCCCC[C@H](NC(=O)OC5CCCC5)C(=O)N4C3)cc(-c3csc(NC(C)C)n3)nc2c1Cl` [Compound 2, (2R,6S,13aR,14aS,16aS)-2-(8-chloro-2-(2-(isopropylamino)thiazol-4-yl)-7-methoxyquinolin-4-yloxy)-6-(cyclopentyloxycarbonylamino)-5,16-dioxooctadecahydrocyclopropa[e]pyrrolo[1,2-a][1,4]diazacyclopentadecin-14a-yl(2,6-diflurobenzyl)phosphinic acid], the EC50 amounted to 11 ± 3 nM in test [1] and 5 nM in test [4].

On to `CC[C@@H]1C[C@]1(NC(=O)[C@@H]1C[C@@H](Oc2cc(-c3csc(NC(C)C)n3)nc3c(Cl)c(OCCN4CCOCC4)ccc23)CN1C(=O)[C@@H](NC(=O)O[C@@H]1C[C@@H]2C[C@@H]2C1)C(C)(C)C)C(=O)O` [Compound 3], for which the EC50 stood at 2.3 ± 2.6 nM in test [2] and 3 ± 1.2 nM in test [4].

Turning to `CC(C)OC(=O)[C@H](C)N[P@](=O)(OC[C@H]1O[C@@](C#N)(c2ccc3c(N)ncnn23)[C@](C)(O)[C@@H]1OC(=O)C(C)C)Oc1ccccc1` [Compound 4], the Interaction entry in test [3] was “Minor synergy (Minor synergy if volumes are >25 and <50 nM^2)”. In addition, the “Replicon RNA log drop” value in the test on genotype 1b replicon RNA is given as −1.2 log.

Consider `COC(=O)N[C@H](C(=O)N1CC2(CC2)C[C@H]1c1ncc(-c2ccc3c(c2)C(F)(F)c2cc(-c4ccc5nc([C@@H]6[C@H]7CC[C@H](C7)N6C(=O)[C@@H](NC(=O)OC)C(C)C)[nH]c5c4)ccc2-3)[nH]1)C(C)C` [Compound 6, (1-{3-[6-(9,9-Difluoro-7-{2-[5-(2-methoxycarbonylamino-3-methyl-butyryl)-5-aza-spiro[2.4]hept-6-yl]-3H-imidazol-4-yl}-9H-fluoren-2-yl)-1H-benzoimidazol-2-yl]-2-aza-bicyclo[2.2.1]heptane-2-carbonyl}-2-methyl-propyl)-carbamic acid methyl ester], for which the Interaction result in test [3] was “Minor synergy (Minor synergy if volumes are >25 and <50 nM^2)”. This molecule gave an EC50 in test [4] of 0.0018 ± 0.0007 nM.
